Test results as given in US7018839B2 (priority 1996, dated 2006).

Tests used:
[1] = test system: neurons in the substantia nigra
substantia nigra = test: Behavioural studies: infusion into one substantia nigra, amphetamine challenge, circling; assay type: in vivo, rats
Procedure: In these experiments, rats were chronically implanted with a cannula in one substantia nigra and left to recover. After a period of about 3 days, they were infused with either a saline control solution, or a solution containing the 14-mer AChE peptide of the invention at a dose of 1 μl of 10^−5M. After a single infusion, they were challenged daily with a systemic application of amphetamine for the subsequent 10 days.

anti-peptide antibody = test: Competition assay for binding of antibody to immobilised AChE-peptide; parameters: species or system Rabbits; settings: competitor preincubated with antibody in solution; APP and BuChE peptide at even excessive doses
Procedure: In order to be sure that the antibody recognition of peptides occurs without the possible distortion due to the binding of the peptide to a charged plastic surface, an assay was used in which the critical interaction is studied in solution. […] An aliquot of the antibody was preincubated with potential competitors for binding to the AChE-peptide before presenting the resulting mixture to the peptide bound to the well.

DAEFRHDSGYEVHHQK [APP-peptide]
calcium channel opening activity [1]: does not itself exert calcium channel opening activity | effect of the fragment alone on calcium potentials [1]: ineffective | effect on the activity of the AChE fragment [1]: enhance the activity of the AChE fragment | activity of the nigrostriatal pathway (substantia nigra; doubling the concentration): reverses this effect | activity of the nigrostriatal pathway (substantia nigra; low concentration): increases activity of the nigrostriatal pathway | competition for the binding of antibody to immobilised AChE-peptide (anti-peptide antibody): could not compete
